For one molecule, LD50 value results are on record in US20070203233A1, “NOVEL 2-(alpha-N-PENTANONYL)BENZOATES, THEIR PREPARATION AND USE” (priority 2004, published 2007).

The data set deals with ICR mice. Particulars: oral gavage, observed 7 days, method of Bliss.

SMILES strings stand for the structures.

Turning to `CCCCC1OC(=O)c2ccccc21` (racemic) [DL-3-n-butylphthalide], the LD50 value came to 2186.1 mg/kg.
